Results taken from patent publication US10202330B2 (dated 2019).
pEC50: −log10 of the molar value. Structures can show the parent of a compound that is named as a salt.

Test system: human colon cancer cell line HCT116
Assay: Cancer cell line study, alamarBlue viability assay
Type: cell-based
Details: HCT-116, 72 h, read-out: EC50 (dose required to inhibit cell growth by 50%)

Compound	pEC50
COc1ccc2c(c1)C(N[C@H]1CC1c1ccc(OCc3ccccc3)cc1)CC2 (stereo in doubt) [Example 1, N-((trans)-2-(4-(benzyloxy)phenyl)cyclopropyl)-6-methoxy-2,3-dihydro-1H-inden-1-amine hydrochloride]	~4.42
COc1cc2c(cc1OC)C(N[C@H]1CC1c1ccc(OCc3ccccc3)cc1)CC2 (stereo in doubt) [Example 2, N-((trans)-2-(4-(benzyloxy)phenyl)cyclopropyl)-5,6-dimethoxy-2,3-dihydro-1H-inden-1-amine hydrochloride]	~4.30
COc1cccc(-c2ccc(C3C[C@@H]3NC3CCc4ccc(OC)cc43)cc2)c1 (stereo in doubt) [Example 11, 6-methoxy-N-((trans)-2-(3′-methoxybiphenyl-4-yl)cyclopropyl)-2,3-dihydro-1H-inden-1-amine hydrochloride]	~4.65
c1ccc(C2C[C@@H]2NCCC2CCCCC2)cc1 (stereo partly drawn) [Example 12, N-trans-(2-cyclohexylethyl)-2-phenylcyclopropanamine hydrochloride]	~4.20
COc1ccc2c(c1)C(N[C@H]1CC1c1ccc(-c3cccc(Cl)c3)cc1)CC2 (stereo in doubt) [Example 9, N-((trans)-2-(3′-chlorobiphenyl-4-yl)cyclopropyl)-6-methoxy-2,3-dihydro-1H-inden-1-amine hydrochloride]	~4.45
